Experimental data: ChEMBL document CHEMBL1764952, “A novel application of DDQ as electrophile in the Nenitzescu reaction” (Bioorg Med Chem, 2011)

The chains behind the UniProt entries cited, without tags or fusion partners.
UniProt P19784, whole entry: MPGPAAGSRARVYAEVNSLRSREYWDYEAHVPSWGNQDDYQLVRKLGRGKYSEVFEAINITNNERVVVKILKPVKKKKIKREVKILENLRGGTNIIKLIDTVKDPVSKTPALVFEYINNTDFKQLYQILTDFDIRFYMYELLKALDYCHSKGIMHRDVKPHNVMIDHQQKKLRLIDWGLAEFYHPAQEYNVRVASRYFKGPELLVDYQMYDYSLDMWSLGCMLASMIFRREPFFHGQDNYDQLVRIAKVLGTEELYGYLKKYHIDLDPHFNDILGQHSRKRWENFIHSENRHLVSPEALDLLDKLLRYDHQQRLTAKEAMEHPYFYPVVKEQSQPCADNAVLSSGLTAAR
UniProt P67870, whole entry: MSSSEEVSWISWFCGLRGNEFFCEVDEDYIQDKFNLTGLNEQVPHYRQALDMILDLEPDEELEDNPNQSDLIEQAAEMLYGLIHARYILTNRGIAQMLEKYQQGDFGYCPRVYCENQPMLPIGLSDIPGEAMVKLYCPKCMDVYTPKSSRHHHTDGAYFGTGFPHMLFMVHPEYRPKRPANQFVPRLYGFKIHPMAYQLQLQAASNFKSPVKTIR
UniProt P68400, whole entry: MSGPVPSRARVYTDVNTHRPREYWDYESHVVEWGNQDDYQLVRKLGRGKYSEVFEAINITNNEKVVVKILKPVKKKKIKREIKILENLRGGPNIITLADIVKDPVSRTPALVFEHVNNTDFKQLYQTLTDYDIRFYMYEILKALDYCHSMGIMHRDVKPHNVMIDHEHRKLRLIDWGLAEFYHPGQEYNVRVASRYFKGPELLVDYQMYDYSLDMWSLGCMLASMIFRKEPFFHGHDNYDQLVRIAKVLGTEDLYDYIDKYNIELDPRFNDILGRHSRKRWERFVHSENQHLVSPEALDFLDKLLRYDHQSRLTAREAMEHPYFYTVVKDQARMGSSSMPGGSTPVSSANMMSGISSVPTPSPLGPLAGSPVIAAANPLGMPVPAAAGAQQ

Biological target: Casein kinase II (Homo sapiens, UniProt P19784+P67870+P68400)
Assay: Inhibition of human recombinant CK2 using RRRDDDSDDD-EDANS peptide substrate by capillary electrophoresis analysis
Format: protein-complex assay

IC50: 0.2 µM
Structure (SMILES): CC(C)=CC(=O)c1oc2c(Cl)c(Cl)c(O)c(C#N)c2c1N
